We go through 7 compounds from patent publication US9663512B2, “Bicyclic heterocycle compounds and their uses in therapy” (ASTEX THERAPEUTICS LIMITED, priority 2012, dated 2017).

Chains of the proteins cited; added tags and fusions are not shown. Residues count along the entry.
UniProt Q13490, 267-363: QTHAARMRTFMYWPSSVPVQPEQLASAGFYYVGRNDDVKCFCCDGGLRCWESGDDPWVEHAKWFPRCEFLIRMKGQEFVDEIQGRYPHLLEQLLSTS
UniProt P98170, 252-350: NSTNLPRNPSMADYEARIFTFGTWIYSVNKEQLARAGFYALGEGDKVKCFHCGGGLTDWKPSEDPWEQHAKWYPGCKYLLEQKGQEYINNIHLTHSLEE

In experiment [1] the target is T1, BIR3 domain of human cIAP-1 (Homo sapiens, UniProt Q13490).
T1 construct: human cIAP-1 (residues 267-363) fused to a GST-tag; GST-tag (cleaved yes); made in house; host or cells: Escherichia coli
Kind of experiment: cIAP-1 in vitro competitive displacement binding assay (fluorescence polarization). As to conditions: read-out: cIAP1 IC50 or PI (percent inhibition). In general terms: Fluorescence polarisation rises when a labelled molecule tumbles more slowly, as on binding a larger partner.

Experiment [2] addresses T2, BIR3 domain of human XIAP (Homo sapiens, UniProt P98170).
T2 construct: BIR3 domain of human XIAP (residues 252-350) fused to a His-tag; His-tag (cleaved yes); made in house; host or cells: Escherichia coli
Briefly: XIAP in vitro competitive displacement binding assay (fluorescence polarization). To be noted: read-out: Xiap IC50 or PI (percent inhibition).

Structures can show the parent of a compound that is named as a salt.

In general, inhibition refers to the change of the read-out against control, counted positive when it falls. Turning to `C[C@@H]1CN(CC(=O)N2CC(C)(C)c3ncc(Cc4ccc(F)cc4)cc32)[C@@H](Cn2ccnc2)CN1` [Example 6, 1-{6-[(4-Fluorophenyl)methyl]-3,3-dimethyl-1H,2H,3H-pyrrolo[3,2-b]pyridin-1-yl}-2-[(2R,5R)-2-(1H-imidazol-1-ylmethyl)-5-methylpiperazin-1-yl]ethan-1-one, dihydrochloride], in experiment [1], the inhibition at 0.012 µM was determined as 89%.

On to `Cc1cn(C[C@H]2CN[C@H](C)CN2CC(=O)N2CC(C)(C)c3ncc(Cc4ccc(F)cc4)cc32)cn1` (single isomer, unassigned) [Example 13, dihydrochloride], for which the inhibition at 0.04 µM in experiment [2] was found to be 38%. Moreover, the inhibition at 0.012 µM in experiment [1] was determined as 97%. Consider `Cc1cn(C[C@H]2CN[C@H](C)CN2CC(=O)N2CC(C)(C)c3ncc(Cc4ccc(F)cc4)cc32)nn1` [Example 16, 1-{6-[(4-Fluorophenyl)methyl]-3,3-dimethyl-1H,2H,3H-pyrrolo[3,2-b]pyridin-1-yl}-2-[(2R,5R)-5-methyl-2-[(4-methyl-1H-1,2,3-triazol-1-yl)methyl]piperazin-1-yl]ethan-1-one, dihydrochloride], for which, in experiment [2] (at 0.12 μM), the inhibition at 0.12 µM was found to be 52%. For the same compound, the inhibition at 0.012 µM in experiment [1] stood at 93%. Turning to `Cc1cnnn1C[C@H]1CN[C@H](C)CN1CC(=O)N1CC(C)(C)c2ncc(Cc3ccc(F)cc3)cc21` [Example 15, 1-{6-[(4-Fluorophenyl)methyl]-3,3-dimethyl-1H,2H,3H-pyrrolo[3,2-b]pyridin-1-yl}-2-[(2R,5R)-5-methyl-2-[(5-methyl-1H-1,2,3-triazol-1-yl)methyl]piperazin-1-yl]ethan-1-one, dihydrochloride], the inhibition at 0.012 µM in experiment [1] worked out at 85%. Same read-out and setting: for `Cc1cc(C)n(C[C@H]2CN[C@H](C)CN2CC(=O)N2CC(C)(C)c3ncc(Cc4ccc(F)cc4)cc32)n1` [Example 1, 2-[(2R,5R)-2-[(3,5-Dimethyl-1H-pyrazol-1-yl)methyl]-5-methylpiperazin-1-yl]-1-{6-[(4-fluorophenyl)methyl]-3,3-dimethyl-1H,2H,3H-pyrrolo[3,2-b]pyridin-1-yl}ethan-1-one, dihydrochloride] the value was 98%. As to `Cc1cn(C[C@H]2CN[C@H](C)CN2CC(=O)N2CC(C)(C)c3ncc(Cc4ccc(F)cc4)cc32)c(C)n1` [Example 7, 2-[(2R,5R)-2-[(2,4-Dimethyl-1H-imidazol-1-yl)methyl]-5-methylpiperazin-1-yl]-1-{6-[(4-fluorophenyl)methyl]-3,3-dimethyl-1H,2H,3H-pyrrolo[3,2-b]pyridin-1-yl}ethan-1-one, dihydrochloride], the inhibition at 0.04 µM in experiment [2] turned out to be 41%. The inhibition at 0.012 µM in experiment [1] came to 100%.

`Cc1cncn1C[C@H]1CN[C@H](C)CN1CC(=O)N1CC(C)(C)c2ncc(Cc3ccc(F)cc3)cc21` (single isomer, unassigned) [Example 14, dihydrochloride]: the inhibition at 0.04 µM in experiment [2] came out at 38%. Besides, the inhibition at 0.012 µM in experiment [1] came to 98%.
